Test results taken from PMC6359543, “Efficacy of Azatyrosine-Phenylbutyric Hydroxamides, a Histone Deacetylase Inhibitor, on Chemotherapy-Induced Gastrointestinal Mucositis” (International Journal of Molecular Sciences, 2019).

Tested on: male ICR mice
Assay: Micronucleus test
Settings: Cyclophosphamide 200 mg/kg

`O=P1(N(CCCl)CCCl)NCCCO1` (centres unmarked) [Cyclophosphamide] was tested. Which “Number of Micronuclei (‰)” value (Day 2) did it give?
The value was 4.80±0.08 ‰.

And the “Number of Micronuclei (‰)” value (Day 3)?
Its value is 4.40±0.19 ‰.
